Where “and” joins values, the source holds several entries; their conditions need not be identical. Identical values can stand only once. Like-named read-outs stand apart in the source and are kept apart here.
Columns and labels:
CgBdf1 BD1 = CgBdf1 BD1 (Candida glabrata, UniProt Q6FWV7); assay: HTRF assay, inhibition of H4ac4 peptide binding; design: species or system C. glabrata; details: CgBD1, replicate experiments
CgBdf1 BD2 = CgBdf1 BD2 (Candida glabrata, UniProt Q6FWV7); type: binding, C. glabrata; details: CgBD2, replicate experiments

Sequences of proteins named here, by UniProt entry; tags and fusion partners are left off.
CgBdf1 BD1 (Candida glabrata, UniProt Q6FWV7), UniProt Q6FWV7, entry or part of it: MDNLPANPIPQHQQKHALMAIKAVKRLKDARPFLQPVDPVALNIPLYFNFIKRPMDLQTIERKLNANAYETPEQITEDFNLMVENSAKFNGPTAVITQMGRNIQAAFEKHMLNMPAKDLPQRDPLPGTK
CgBdf1 BD2 (Candida glabrata, UniProt Q6FWV7), UniProt Q6FWV7, entry or part of it: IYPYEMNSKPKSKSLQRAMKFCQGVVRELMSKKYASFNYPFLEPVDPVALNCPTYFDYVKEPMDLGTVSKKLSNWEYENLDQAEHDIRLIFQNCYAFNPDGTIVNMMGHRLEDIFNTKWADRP

I-BET151
HTRF signal relative to no-compound control (Figure S4A raw data) (CgBdf1 BD1; Conc 2.10 nM): 93.14 and 84.00 and 89.21
HTRF signal relative to no-compound control (Figure S4A raw data) (CgBdf1 BD1; Conc 13.11 nM): 94.62 and 107.66 and 86.70
HTRF signal relative to no-compound control (Figure S4A raw data) (CgBdf1 BD1; Conc 32.77 nM): 92.12 and 91.61 and 103.42
HTRF signal relative to no-compound control (Figure S4A raw data) (CgBdf1 BD1; Conc 81.92 nM): 95.66 and 146.10 and 95.63
HTRF signal relative to no-compound control (Figure S4A raw data) (CgBdf1 BD1; Conc 204.8 nM): 89.54 and 82.34 and 87.03
HTRF signal relative to no-compound control (Figure S4A raw data) (CgBdf1 BD1; Conc 512 nM): 80.84 and 85.95 and 68.82
HTRF signal relative to no-compound control (Figure S4A raw data) (CgBdf1 BD1; Conc 1280 nM): 54.18 and 66.91 and 59.99
HTRF signal relative to no-compound control (Figure S4A raw data) (CgBdf1 BD1; Conc 3200 nM): 31.81 and 43.33 and 38.44
HTRF signal relative to no-compound control (Figure S4A raw data) (CgBdf1 BD1; Conc 8000 nM): 12.77 and 19.19 and 12.15
HTRF signal relative to no-compound control (Figure S4A raw data) (CgBdf1 BD1; Conc 20000 nM): 17.74 and 10.62 and 8.74
HTRF signal relative to no-compound control (Figure S4A raw data) (CgBdf1 BD2; Conc 2.10 nM): 91.90 and 111.23 and 90.11
HTRF signal relative to no-compound control (Figure S4A raw data) (CgBdf1 BD2; Conc 13.11 nM): 75.25 and 95.57 and 101.57
HTRF signal relative to no-compound control (Figure S4A raw data) (CgBdf1 BD2; Conc 32.77 nM): 87.81 and 96.57 and 125.47
HTRF signal relative to no-compound control (Figure S4A raw data) (CgBdf1 BD2; Conc 81.92 nM): 90.53 and 89.01 and 91.69
HTRF signal relative to no-compound control (Figure S4A raw data) (CgBdf1 BD2; Conc 204.8 nM): 70.96 and 74.26 and 73.64
HTRF signal relative to no-compound control (Figure S4A raw data) (CgBdf1 BD2; Conc 512 nM): 48.37 and 68.63 and 54.62
HTRF signal relative to no-compound control (Figure S4A raw data) (CgBdf1 BD2; Conc 1280 nM): 18.91 and 29.96 and 36.91
HTRF signal relative to no-compound control (Figure S4A raw data) (CgBdf1 BD2; Conc 3200 nM): 11.43 and 17.11 and 16.90
HTRF signal relative to no-compound control (Figure S4A raw data) (CgBdf1 BD2; Conc 8000 nM): 4.83 and 15.36 and 17.34
HTRF signal relative to no-compound control (Figure S4A raw data) (CgBdf1 BD2; Conc 20000 nM): 4.70 and 22.26 and 22.30

From article PMC11904993, “Humanized Candida and NanoBiT Assays Expedite Discovery of Bdf1 Bromodomain Inhibitors With Antifungal Potential” (Advanced Science, 2025)
